Molecular target: Endothelin-1 receptor (Homo sapiens, UniProt P25101)
Assay: Antagonist activity at ETA receptor in human pericardial smooth muscle cells assessed as inhibition of endothelin-1-induced [32H]arachidonic acid release incubated for 30 mins by radioactivity based assay
Assay type: functional, cell-based, Pericardial smooth muscle cell

The chains behind the UniProt entries cited, without tags or fusion partners.
UniProt P25101, whole entry: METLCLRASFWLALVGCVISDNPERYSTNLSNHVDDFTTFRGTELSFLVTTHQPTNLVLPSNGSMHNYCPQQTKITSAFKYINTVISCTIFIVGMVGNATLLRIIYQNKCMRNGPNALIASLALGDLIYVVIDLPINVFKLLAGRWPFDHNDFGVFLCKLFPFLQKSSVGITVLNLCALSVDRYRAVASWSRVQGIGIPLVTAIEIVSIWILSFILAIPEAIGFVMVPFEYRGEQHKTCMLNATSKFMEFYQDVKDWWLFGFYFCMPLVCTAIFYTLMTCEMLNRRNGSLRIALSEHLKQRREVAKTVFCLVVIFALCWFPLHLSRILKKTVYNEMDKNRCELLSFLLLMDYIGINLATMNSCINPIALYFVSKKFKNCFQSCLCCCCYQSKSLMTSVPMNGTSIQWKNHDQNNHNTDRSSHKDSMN

- IC50: 3 nM
Structure (SMILES): CCCCN(CCCC)C(=O)CN1C[C@H](c2cc(OC)c3c(c2)OCO3)[C@@H](C(=O)O)[C@@H]1CC(C)(C)CCC [ABT-546]
